Columns and labels:
Test in all cases: relative viability (nuclei count vs DMSO), 5 days (fraction); higher = more cells survive
XMD8-85 + Tozasertib = compound: CN1CCN(CC1)C2=CC(=C(C=C2)NC3=NC=C4C(=N3)N(C5=CC=CC=C5C(=O)N4C)C)OC [XMD8-85] + Cc1cc(Nc2cc(N3CCN(C)CC3)nc(Sc3ccc(NC(=O)C4CC4)cc3)n2)n[nH]1 [Tozasertib] (partner 0.1 µM)
Outline: (§1)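 After 5 days of treatment, lung cancer cells in 1536-well plates were fixed and stained in a single step (final 0.05% Triton X-100, 1% formaldehyde, 1 ug/ml Hoechst) and their nuclei counted on 4× images. Treatment had been applied by pin tool the day after seeding as one drug alone or as a fixed anchor-drug dose with five library-drug doses (not always all listed) in √10 steps. Relative viability is the nuclei count of treated wells divided by that of vehicle wells, and values are medians of duplicate plates.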

XMD8-85 + Dasatinib = compound: CN1CCN(CC1)C2=CC(=C(C=C2)NC3=NC=C4C(=N3)N(C5=CC=CC=C5C(=O)N4C)C)OC [XMD8-85] + Cc1nc(Nc2ncc(C(=O)Nc3c(C)cccc3Cl)s2)cc(N2CCN(CCO)CC2)n1 [Dasatinib] (partner 0.075 µM)
Outline: as §1

XMD8-85 + Trametinib = compound: CN1CCN(CC1)C2=CC(=C(C=C2)NC3=NC=C4C(=N3)N(C5=CC=CC=C5C(=O)N4C)C)OC [XMD8-85] + CC(=O)Nc1cccc(-n2c(=O)n(C3CC3)c(=O)c3c(Nc4ccc(I)cc4F)n(C)c(=O)c(C)c32)c1 [Trametinib] (partner 0.02 µM)
Outline: as §1

XMD8-85 + Decitabine = compound: CN1CCN(CC1)C2=CC(=C(C=C2)NC3=NC=C4C(=N3)N(C5=CC=CC=C5C(=O)N4C)C)OC [XMD8-85] + Nc1ncn([C@H]2C[C@H](O)[C@@H](CO)O2)c(=O)n1 [Decitabine] (partner 2 µM)
Outline: as §1

XMD8-85 + Vorinostat = compound: CN1CCN(CC1)C2=CC(=C(C=C2)NC3=NC=C4C(=N3)N(C5=CC=CC=C5C(=O)N4C)C)OC [XMD8-85] + O=C(CCCCCCC(=O)Nc1ccccc1)NO [Vorinostat] (partner 1 µM)
Outline: as §1

XMD8-85 + Lapatinib = compound: CN1CCN(CC1)C2=CC(=C(C=C2)NC3=NC=C4C(=N3)N(C5=CC=CC=C5C(=O)N4C)C)OC [XMD8-85] + CS(=O)(=O)CCNCc1ccc(-c2ccc3ncnc(Nc4ccc(OCc5cccc(F)c5)c(Cl)c4)c3c2)o1 [Lapatinib] (partner 2 µM)
Outline: as §1

XMD8-85 + Foretinib = compound: CN1CCN(CC1)C2=CC(=C(C=C2)NC3=NC=C4C(=N3)N(C5=CC=CC=C5C(=O)N4C)C)OC [XMD8-85] + COc1cc2c(Oc3ccc(NC(=O)C4(C(=O)Nc5ccc(F)cc5)CC4)cc3F)ccnc2cc1OCCCN1CCOCC1 [Foretinib] (partner 0.25 µM)
Outline: as §1

XMD8-85 + Phenformin = compound: CN1CCN(CC1)C2=CC(=C(C=C2)NC3=NC=C4C(=N3)N(C5=CC=CC=C5C(=O)N4C)C)OC [XMD8-85] + N=C(N)NC(=N)NCCc1ccccc1 [Phenformin] (partner 250 µM)
Outline: as §1

XMD8-85 + OSI-027 = compound: CN1CCN(CC1)C2=CC(=C(C=C2)NC3=NC=C4C(=N3)N(C5=CC=CC=C5C(=O)N4C)C)OC [XMD8-85] + COc1cccc2cc(-c3nc([C@H]4CC[C@H](C(=O)O)CC4)n4ncnc(N)c34)[nH]c12 [OSI-027] (partner 0.5 µM); conditions: first compound 8 µM
Outline: as §1

XMD8-85 + Palbociclib = compound: CN1CCN(CC1)C2=CC(=C(C=C2)NC3=NC=C4C(=N3)N(C5=CC=CC=C5C(=O)N4C)C)OC [XMD8-85] + CC(=O)c1c(C)c2cnc(Nc3ccc(N4CCNCC4)cn3)nc2n(C2CCCC2)c1=O [Palbociclib] (partner 0.5 µM)
Outline: as §1

XMD8-85 + Olaparib = compound: CN1CCN(CC1)C2=CC(=C(C=C2)NC3=NC=C4C(=N3)N(C5=CC=CC=C5C(=O)N4C)C)OC [XMD8-85] + O=C(c1cc(Cc2n[nH]c(=O)c3ccccc23)ccc1F)N1CCN(C(=O)C2CC2)CC1 [Olaparib] (partner 8 µM)
Outline: as §1

XMD8-85 + Alpelisib = compound: CN1CCN(CC1)C2=CC(=C(C=C2)NC3=NC=C4C(=N3)N(C5=CC=CC=C5C(=O)N4C)C)OC [XMD8-85] + Cc1nc(NC(=O)N2CCC[C@H]2C(N)=O)sc1-c1ccnc(C(C)(C)C(F)(F)F)c1 [Alpelisib] (partner 2 µM); conditions: first compound 8 µM
Outline: as §1

XMD8-85 + Luminespib = compound: CN1CCN(CC1)C2=CC(=C(C=C2)NC3=NC=C4C(=N3)N(C5=CC=CC=C5C(=O)N4C)C)OC [XMD8-85] + CCNC(=O)c1noc(-c2cc(C(C)C)c(O)cc2O)c1-c1ccc(CN2CCOCC2)cc1 [Luminespib] (partner 0.01 µM); conditions: first compound 0.253 µM
Outline: as §1

XMD8-85 + AZD7762 = compound: CN1CCN(CC1)C2=CC(=C(C=C2)NC3=NC=C4C(=N3)N(C5=CC=CC=C5C(=O)N4C)C)OC [XMD8-85] + NC(=O)Nc1cc(-c2cccc(F)c2)sc1C(=O)N[C@H]1CCCNC1 [AZD7762] (partner 0.2 µM); conditions: first compound 2.53 µM
Outline: as §1

XMD8-85 + Linsitinib = compound: CN1CCN(CC1)C2=CC(=C(C=C2)NC3=NC=C4C(=N3)N(C5=CC=CC=C5C(=O)N4C)C)OC [XMD8-85] + C[C@]1(O)C[C@@H](c2nc(-c3ccc4ccc(-c5ccccc5)nc4c3)c3c(N)nccn32)C1 [Linsitinib] (partner 1 µM)
Outline: as §1

XMD8-85 = compound: CN1CCN(CC1)C2=CC(=C(C=C2)NC3=NC=C4C(=N3)N(C5=CC=CC=C5C(=O)N4C)C)OC [XMD8-85]
Outline: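 Viability is treated-well nuclei as a fraction of vehicle-well nuclei, reported as the median across plates. Before counting, lung cancer cell lines were kept overnight at 37 °C in 1536-well plates, pinned with five √10-spaced library-drug doses on vehicle-anchored plates, and left 5 days without medium change, then fixed, permeabilised and Hoechst-stained in one step, imaged at 4× and counted by MetaXpress. A plate passed only if control CV was below 25% and at least one doubling occurred.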

XMD8-85 + Crizotinib = compound: CN1CCN(CC1)C2=CC(=C(C=C2)NC3=NC=C4C(=N3)N(C5=CC=CC=C5C(=O)N4C)C)OC [XMD8-85] + C[C@@H](Oc1cc(-c2cnn(C3CCNCC3)c2)cnc1N)c1c(Cl)ccc(F)c1Cl [Crizotinib] (partner 1 µM)
Outline: as §1

XMD8-85 + Pictilisib = compound: CN1CCN(CC1)C2=CC(=C(C=C2)NC3=NC=C4C(=N3)N(C5=CC=CC=C5C(=O)N4C)C)OC [XMD8-85] + CS(=O)(=O)N1CCN(Cc2cc3nc(-c4cccc5[nH]ncc45)nc(N4CCOCC4)c3s2)CC1 [Pictilisib] (partner 1 µM); conditions: first compound 0.8 µM
Outline: as §1

**Q.** How did the relative viability (XMD8-85 + Tozasertib; first compound 0.8 µM) turn out when 201T was run?
**A.** 0.953

**Q.** And the relative viability (XMD8-85 + Dasatinib; first compound 0.08 µM)?
**A.** 0.621

**Q.** With NCI-H520 as the cell line, how does the relative viability (XMD8-85 + Trametinib; first compound 0.08 µM) read?
**A.** 0.712

**Q.** What about the relative viability (XMD8-85 + Decitabine; first compound 0.08 µM) of the same cell line?
**A.** 0.482

**Q.** And the relative viability (XMD8-85 + Vorinostat; first compound 0.8 µM)?
**A.** 0.703

**Q.** For LOU-NH91, which relative viability (XMD8-85 + Lapatinib; first compound 0.08 µM) is on record?
**A.** 0.743

**Q.** And the relative viability (XMD8-85 + Foretinib; first compound 0.08 µM)?
**A.** 0.916

**Q.** What about the relative viability (XMD8-85 + Phenformin; first compound 0.8 µM) of the same cell line?
**A.** 0.718

**Q.** And the relative viability (XMD8-85 + OSI-027)?
**A.** 0.616

**Q.** Which relative viability (XMD8-85 + Foretinib; first compound 0.08 µM) does the source give for NCI-H1793 here?
**A.** 0.726

**Q.** SK-MES-1 was tested. Which relative viability (XMD8-85 + Palbociclib; first compound 2.53 µM) did it give?
**A.** 0.328

**Q.** What about the relative viability (XMD8-85 + Tozasertib; first compound 0.8 µM) of the same cell line?
**A.** 0.938

**Q.** What about the relative viability (XMD8-85 + Olaparib; first compound 0.8 µM) of the same cell line?
**A.** 0.693

**Q.** And the relative viability (XMD8-85 + Alpelisib)?
**A.** 0.777

**Q.** And the relative viability (XMD8-85 + Dasatinib; first compound 2.53 µM)?
**A.** 0.326

**Q.** For SW 900, which relative viability (XMD8-85 + Trametinib; first compound 2.53 µM) is on record?
**A.** 0.654

**Q.** Which relative viability (XMD8-85 + Palbociclib; first compound 0.8 µM) does the source give for HOP-62 here?
**A.** 0.419

**Q.** What about the relative viability (XMD8-85 + Luminespib) of the same cell line?
**A.** 0.927

**Q.** What about the relative viability (XMD8-85 + AZD7762) of the same cell line?
**A.** 0.663

**Q.** What about the relative viability (XMD8-85 + Alpelisib) of the same cell line?
**A.** 0.613

**Q.** And the relative viability (XMD8-85 + Linsitinib; first compound 8 µM)?
**A.** 0.664

**Q.** What about the relative viability (XMD8-85 + Dasatinib; first compound 2.53 µM) of the same cell line?
**A.** 0.685

**Q.** What about the relative viability (XMD8-85; 8 µM) of the same cell line?
**A.** 0.687

**Q.** Which results are given for HCC-827?
**A.** relative viability (XMD8-85 + Crizotinib; first compound 0.08 µM): 1.02; relative viability (XMD8-85 + Tozasertib; first compound 0.08 µM): 0.425; relative viability (XMD8-85 + Phenformin; first compound 0.253 µM): 0.396; relative viability (XMD8-85 + Phenformin; first compound 0.8 µM): 0.423

**Q.** HCC-44 was tested. Which relative viability (XMD8-85; 0.8 µM) did it give?
**A.** 0.991

**Q.** For BEN, which relative viability (XMD8-85 + Lapatinib; first compound 0.253 µM) is on record?
**A.** 0.719

**Q.** And the relative viability (XMD8-85 + Pictilisib)?
**A.** 0.522

**Q.** What about the relative viability (XMD8-85 + Crizotinib; first compound 0.8 µM) of the same cell line?
**A.** 0.817

**Q.** And the relative viability (XMD8-85 + Tozasertib; first compound 0.253 µM)?
**A.** 0.458

**Q.** SW 1573 was tested. Which relative viability (XMD8-85 + Palbociclib; first compound 0.08 µM) did it give?
**A.** 0.328

**Q.** And the relative viability (XMD8-85 + Olaparib; first compound 2.53 µM)?
**A.** 0.419

**Q.** And the relative viability (XMD8-85 + Linsitinib; first compound 0.8 µM)?
**A.** 0.642

**Q.** And the relative viability (XMD8-85 + Decitabine; first compound 0.8 µM)?
**A.** 0.632

**Q.** What about the relative viability (XMD8-85; 8 µM) of the same cell line?
**A.** 0.661

**Q.** How did the relative viability (XMD8-85 + Foretinib; first compound 0.253 µM) turn out when LU99A was run?
**A.** 0.777

**Q.** And the relative viability (XMD8-85 + Vorinostat; first compound 2.53 µM)?
**A.** 0.483

**Q.** Which results are given for NCI-H1944?
**A.** relative viability (XMD8-85 + Foretinib; first compound 0.08 µM): 0.916; relative viability (XMD8-85 + Vorinostat; first compound 0.253 µM): 0.626
